Experimental data reported in US20110093964A1.

Key:
[1] = biological target: MLCKp peptide, 17 residues, derived from the calmodulin-binding domain of a rabbit muscle myosin light chain kinase (CALBIOCHEM) (rabbit); assay: tryptophan fluorescence of 5 uM MLCKp (excitation 280 nm) in 10 mM MES pH 6.5, one equivalent of calmodulin, no metals
[2] = biological target: MLCKp peptide, 17 residues, derived from the calmodulin-binding domain of a rabbit muscle myosin light chain kinase (CALBIOCHEM) (rabbit); assay: tryptophan fluorescence of 5 uM MLCKp with one equivalent of calmodulin after adding 10 equivalents of calcium; maximum stays at 330 nm
[3] = biological target: MLCKp peptide, 17 residues, derived from the calmodulin-binding domain of a rabbit muscle myosin light chain kinase (CALBIOCHEM) (rabbit); assay: tryptophan fluorescence of 5 uM MLCKp (excitation 280 nm) in 10 mM MES pH 6.5, one equivalent of calmodulin, no metals; free peptide emits at 350 nm

increase in tryptophan fluorescence intensity [1]: 25%
increase in tryptophan fluorescence intensity [2]: 20%
maximum of tryptophan fluorescence emission [3]: 330 nm
Substance: native bovine brain calmodulin (from UniProt P62157 2-149)
